Experimental data as given in PubChem BioAssay AID588501 (NMMLSC, 2011).
The entries are a selection whose mix differs from that of the whole data set. The source made the active and inactive calls. No stated cut-off is given here; in the data, active means inhibition above about 30%; inconclusive means no clear call, values can overlap the other calls; inactive means below that.

The compounds below were run against Lethal factor (Bacillus anthracis) (UniProt P15917) (assay: Bacillus anthracis LF protease inhibitors, primary screen, biochemical, multiplex microsphere, MLPCN library (AID 588501; further: plate controls were buffer without enzyme for full effect and enzyme alone for no effect)). Conditions: multiplex microsphere protease cleavage assay, at 10 µM, stronger effect = higher value.

Structure (SMILES) | inhibition
CCC(=O)N(c1ccccc1)C1(COC)CCN(CCn2nnn(CC)c2=O)CC1 | inactive: -5.6%
CCC(=O)N(c1ccccc1)C1(COC)CCN(CCc2cccs2)CC1 | inactive: -1.3%
